# AlphaSeq binding of Ab-14 light chain variants to a spike HR2 peptide

Binding partner: SARS-CoV-2 spike HR2 peptide, sequence PDVDLGDISGINAS.

Parent scFv Ab-14: VH joined to VL by the linker GGGGSGGGGSGGGGS. Changes lie in the light chain CDRs alone.
VH: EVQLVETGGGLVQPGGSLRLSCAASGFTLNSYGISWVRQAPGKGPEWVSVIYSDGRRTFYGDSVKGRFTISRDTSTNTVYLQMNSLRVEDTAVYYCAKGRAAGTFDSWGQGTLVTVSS
VL: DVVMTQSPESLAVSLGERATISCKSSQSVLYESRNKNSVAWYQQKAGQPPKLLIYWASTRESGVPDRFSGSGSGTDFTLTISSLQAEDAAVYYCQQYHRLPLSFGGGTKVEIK

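This is the validation round: designs drawn from the data on random variants, tested in the same kind of assay. Their group label is 14L_GP_Gibbs (GP: Gaussian process model; Gibbs: Gibbs sampling; a sequence that several methods proposed may carry one label only). AlphaSeq pools MATa yeast showing the antibodies with MATalpha yeast showing the peptide. The frequency of each diploid, read from paired DNA barcodes, reflects how well the two displayed proteins bind. Scores were corrected for input abundance and mapped to Kd with protein pairs of known affinity run in the same pool. Each pool was mated in six replicate cultures.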

Changes read parent residue, position, new residue, counted from the first residue of the VL shown. Numbers give log10(Kd / nM), so 0 is 1 nM and 3 is 1 µM. Smaller is tighter. Replicates are averaged; those with no signal do not enter the mean. The authors' rule: three or more of the six replicates give a measured affinity, fewer mean a poor binder. Empty control strains, which show no peptide, gave a signal in 4% of pairings with all light chain designs; the median was 2.64 and 95% of these signals were weaker than 1.59. No background was subtracted. Also given: how often the same scFv was detected with the empty control strains, with their mean in brackets. Of ten entries with the parent sequence, four were seen in most replicates (averages 0.34 to 2.37), three in one and three in none, so single entries are noisy. The range of this assay differs from that of the first round, and the authors advise against merging the two.

changes	log10 Kd (nM) by replicate	mean, log10 nM	signal with controls
S25L+Q27K+L30M+W56S+E61Y+S62E	0.15 0.15 -0.05 -0.04 -0.11 0.13	0.04	0 of 18
S25L+Q27E+R34Q+K36S+S38N+W56D+E61M	-0.23 -0.20 -0.16 -0.41 -0.37 -0.16	-0.26	1 of 18 (2.75)
S25V+V29A+L30W+Y31M+K36A+W56N+S62E	-0.09 -0.08 -0.12 -0.44 -0.21 -0.11	-0.18	0 of 18
S25M+V29W+Y31G+S33D+R34W+W56Q+T59Q+E61M	0.65 0.09 0.15 0.45 0.47 0.77	0.43	1 of 18 (1.71)
S25F+S26M+V29M+L30G+K36Q+W56D+E61R	0.65 0.66 0.45 0.48 0.67 0.89	0.63	1 of 18 (2.81)
S25L+S26V+V29N+K36T+W56N+T59Q+E61C	0.23 0.03 0.05 -0.13 0.17 0.19	0.09	2 of 18 (1.94)
S25L+S26Q+V29M+W56N+T59L	0.15 0.10 0.06 0.13 0.48 0.52	0.24	1 of 18 (2.62)
Q27F+V29Q+S33D+W56S+T59Q	0.24 0.17 0.37 -0.04 0.03 0.17	0.15	0 of 18
S25G+S26M+Q27G+V29M+K36E+W56N+T59Q	0.54 0.91 0.14 0.85 0.51 0.44	0.56	0 of 18
S25I+S26Q+R34L+K36Q+W56E+E61L	0.41 0.31 -0.04 -0.10 0.15 0.36	0.18	0 of 18
S25V+Q27G+V29Q+K36S+S38A+W56N+T59L+E61M	0.60 0.50 0.47 0.32 0.48 0.71	0.51	2 of 18 (2.77)
S25V+Q27P+V29M+L30W+S38A+W56D+T59Q+S103Q	-0.50 -0.35 -0.40 -0.77 -0.63 -0.40	-0.51	1 of 18 (1.68)
S25M+Y31L+K36W+S38A+W56M+E61M+S62D	0.28 0.29 0.50 -0.17 0.65 0.63	0.36	1 of 18 (2.37)
K24L+S25I+V29E+S33Q+W56D+T59Q+E61L	0.67 0.98 0.44 0.92 0.81 0.59	0.74	0 of 18
S25M+S26Q+Q27A+S28G+V29Q+L30G+W56Q+A57G+T59K	0.90 0.65 0.93 0.67 0.98 0.25	0.73	1 of 18 (1.54)
S25F+Q27Y+S33D+K36Q+W56D+T59Q+S62Q	0.31 0.40 0.45 0.13 0.57 0.47	0.39	1 of 18 (2.44)
S25I+K36W+S38A+W56E+T59Q+Q96D	0.61 -0.48 0.00 -0.09 -0.03 -0.30	-0.05	0 of 18
S25M+V29Y+Y31M+K36C+W56N+E61L+S62W	0.57 0.22 0.23 0.38 0.06 0.44	0.32	1 of 18 (3.94)
S25F+S28M+V29D+S38Q+W56D+T59Q+E61S	0.66 0.67 0.44 0.42 0.35 0.52	0.51	2 of 18 (2.84)
S25L+S26D+V29G+L30G+E32G+W56H+T59Y+S103Y	1.59 1.35 1.27 1.88 1.59 1.54	1.54	1 of 18 (3.40)
K24L+S25L+Q27G+V29E+L30Q+W56D+Q96A	0.25 0.33 0.23 0.20 0.34 0.37	0.29	0 of 18
S26Q+V29W+L30E+K36S+W56Q+E61M+S62A+S103I	0.53 0.55 0.31 0.27 0.36 0.61	0.44	0 of 18
S25L+Q27S+V29H+E32G+S33D+N35M+W56Q+T59Q+S62M	0.65 0.73 0.27 0.63 0.17 0.60	0.51	0 of 18
S25V+Q27C+L30M+Y31L+K36W+S38A+W56E+T59Q+Q96D	0.30 0.22 0.31 0.38 0.46 0.10	0.30	2 of 18 (2.24)
S25L+S26P+V29M+L30E+N35M+N37Q+W56A	0.54 -0.20 0.21 1.09 0.19 1.16	0.50	1 of 18 (1.89)
S25Y+V29Q+S33D+K36V+S38A+W56N+T59Q+E61M	0.14 0.15 0.59 0.02 0.09 0.30	0.21	2 of 18 (2.64)
S25L+S38Q+W56G+E61M	0.23 0.14 -0.03 0.16 0.00 0.14	0.11	1 of 18 (2.85)
S25L+S26Q+Q27M+S28M+L30E+Y31M+K36P+W56S+S62L	0.00 0.03 -0.18 -0.16 -0.02 0.11	-0.04	2 of 18 (3.82)
S25I+V29E+L30P+S33D+K36F+W56N+T59Y+E61C	0.46 0.61 0.52 0.35 0.36 0.66	0.49	1 of 18 (2.79)
S25L+Q27P+S28E+V29M+L30E+N37A+W56H	0.19 0.10 0.32 -0.44 -0.16 0.04	0.01	0 of 18
S25A+S26R+V29Q+K36Q+W56N+T59Q+E61L+S62Q	0.54 -0.30 -0.10 -0.22 -0.22 0.12	-0.03	0 of 18
S25L+S26W+Q27M+Y31G+S38A+W56S+S62Q	0.30 0.32 0.09 0.29 0.32 0.63	0.32	0 of 18
S25L+V29M+L30E+W56H+S62E+S103M	-0.15 -0.21 -0.41 -0.54 -0.17 0.04	-0.24	0 of 18
S25L+S26D+L30D+Y31E+E32K+N35H+W56E	0.51 0.54 0.35 0.24 0.36 0.44	0.40	2 of 18 (3.32)
S26E+Q27M+S28L+V29Y+L30Y+E32G+S33D+W56Q	-0.18 -0.23 -0.14 -0.24 -0.23 -0.01	-0.17	2 of 18 (2.05)
S25T+S26E+Q27F+V29E+W56N+T59E	0.09 0.35 -0.07 0.06 -0.02 0.49	0.15	0 of 18
S25L+S26Q+W56N+S62D+R99Q	-0.17 -0.33 -0.16 -0.47 -0.39 -0.01	-0.26	2 of 18 (2.12)
S25V+S26V+V29H+L30D+W56H+E61C+Q96D	0.69 0.60 0.36 0.51 0.55 0.83	0.59	1 of 18 (2.92)
Q27G+S28M+V29D+K36G+W56D+E61S+S62D	0.08 0.22 0.36 -0.03 0.11 0.13	0.14	0 of 18
Q27I+L30E+E32Q+S33D+N35L+K36S+W56D+T59Q	0.18 0.12 -0.01 -0.11 0.01 0.08	0.04	3 of 18 (3.13)
S26Q+L30W+N35M+W56N+T59L+E61C	1.19 1.14 1.61 1.15 1.11 1.14	1.22	0 of 18
K24H+S25L+S26Y+V29E+N35W+W56N+E61L	0.45 0.71 0.50 0.71 0.82 0.97	0.69	1 of 18 (2.56)
Q27G+V29Q+L30Q+S33D+W56S+T59Q	0.18 0.31 0.52 -0.16 0.33 0.36	0.26	0 of 18
S25L+Y31Q+E32L+S33W+W56Q+T59H	1.47 1.58 1.28 0.99 1.13 1.09	1.26	1 of 18 (2.65)
S25T+S26E+Q27F+V29W+W56N+T59E	0.22 0.00 0.14 -0.18 -0.33 0.07	-0.01	0 of 18
S25I+S26P+V29M+Y31G+S33W+K36F+W56N+T59Q	0.30 0.34 0.06 0.09 0.28 0.39	0.24	1 of 18 (2.28)
S25L+S26E+Q27F+L30D+S38A+W56N+S62K	-0.32 -0.16 -0.38 -0.53 -0.21 -0.05	-0.28	0 of 18

Extract of 6 entries:

| changes | log10 Kd (nM) by replicate | mean, log10 nM | signal with controls |
|---|---|---|---|
| S25L+S26D+V29G+L30G+E32G+W56H+T59Y+S103Y | 1.59 1.35 1.27 1.88 1.59 1.54 | 1.54 | 1 of 18 (3.40) |
| S25Y+V29Q+S33D+K36V+S38A+W56N+T59Q+E61M | 0.14 0.15 0.59 0.02 0.09 0.30 | 0.21 | 2 of 18 (2.64) |
| S25T+S26E+Q27F+V29W+W56N+T59E | 0.22 0.00 0.14 -0.18 -0.33 0.07 | -0.01 | 0 of 18 |
| S25L+S26P+V29M+L30E+N35M+N37Q+W56A | 0.54 -0.20 0.21 1.09 0.19 1.16 | 0.50 | 1 of 18 (1.89) |
| S25A+S26R+V29Q+K36Q+W56N+T59Q+E61L+S62Q | 0.54 -0.30 -0.10 -0.22 -0.22 0.12 | -0.03 | 0 of 18 |
| S25L+S26W+Q27M+Y31G+S38A+W56S+S62Q | 0.30 0.32 0.09 0.29 0.32 0.63 | 0.32 | 0 of 18 |

Values reported by Li et al. 2023, doi:10.1038/s41467-023-39022-2 (FLAb copy).